# Tests used:
# By UniProt entry, the sequences of proteins in these tests, tags left out. Residues count along the entry.
# UniProt Q07343, 1-564 isoform 2: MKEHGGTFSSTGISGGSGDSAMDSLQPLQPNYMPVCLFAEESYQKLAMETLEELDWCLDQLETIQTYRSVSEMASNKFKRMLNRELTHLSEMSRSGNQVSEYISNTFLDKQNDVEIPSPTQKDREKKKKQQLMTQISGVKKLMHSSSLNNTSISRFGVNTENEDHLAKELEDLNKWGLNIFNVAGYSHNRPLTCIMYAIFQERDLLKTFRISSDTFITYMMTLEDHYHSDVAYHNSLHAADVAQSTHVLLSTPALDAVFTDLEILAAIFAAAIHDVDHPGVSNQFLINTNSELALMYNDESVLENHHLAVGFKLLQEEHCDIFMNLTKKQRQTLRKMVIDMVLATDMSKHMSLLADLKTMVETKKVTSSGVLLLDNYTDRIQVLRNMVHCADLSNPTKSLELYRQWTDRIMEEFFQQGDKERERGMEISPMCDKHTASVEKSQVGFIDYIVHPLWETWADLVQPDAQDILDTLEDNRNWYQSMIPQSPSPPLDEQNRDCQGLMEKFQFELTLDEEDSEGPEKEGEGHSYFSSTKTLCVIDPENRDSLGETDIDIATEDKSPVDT
# [1] = target: PDE4B (human recombinant) (Homo sapiens, UniProt Q07343); assay: Inhibition of PDE4B activity: Radioactive Scintillation Proximity Assay (SPA); format: biochemical; conditions: SPA or FP format not given, tested form: HCl
# PDE5 (human recombinant) = PDE5 (human recombinant) (Homo sapiens, UniProt O76074); assay: Inhibition of PDE5 activity: Radioactive Scintillation Proximity Assay (SPA); conditions: tested form: HCl
SMILES,PDE4B mean pIC50 [1],PDE5 mean pIC50 (PDE5 (human recombinant))
COc1ccc(CNc2c(C(N)=O)cnc3ccc(S(=O)(=O)c4ccccc4)cc23)cc1Cl,6.6,5.5
CC(C)c1cccc(Nc2c(C(N)=O)cnc3ccc(S(=O)(=O)c4ccccc4)cc23)c1,7.3,5.0

# Reference: US7566786B2, “Quinoline derivatives as phosphodiesterase inhibitors” (Glaxo Group Limited, priority 2003, dated 2009)
